# Legend:
# [1] = test system: type-1 PRMT (PRMT1, 3, 4, 6, 8) product aDMA; assay: Western blot of aDMA after PRMT5i; conditions: even at 2.5 μM; 4 days
# [2] = test system: PRMT5 product sDMA; assay: Western blot of sDMA after PRMT5i; conditions: low nM doses; 4 days; BFTC909 and NCIH2030 cells
# [3] = test system: other histone methyltransferases; assay: PRMT5i against other histone methyltransferases (data not shown); assay type: biochemical; conditions: at up to 50 μM
# [4] = PRMT5i stability in media (LCMS); conditions: tumor cell media, 37° C., 0 and 72 hours
smiles,measurement,setting,value
O=C(NC[C@H](O)CN1CCc2ccccc2C1)c1cc(NC2COC2)ncn1 [EPZ015666],aDMA production,[1],no effect
same,sDMA,[2],marked reduction
same,inhibition of other histone methyltransferases,[3],without inhibition
same,stability in tissue culture media,[4],stable over several days
